Data reported in patent publication US7592163B2 (The Board of Trustees of the University of Illinois, priority 2004, dated 2009).

Columns and labels:
[1] = test system: Nicotinamide adenine dinucleotide phosphate reduced; test: purified protein, by the assay type; settings: other: KM of the coenzyme, xylose 300 mM, 25° C., 50 mM MOPS pH 6.3
[2] = test system: Nicotinamide adenine dinucleotide reduced; test: purified protein, by the assay type; settings: other: KM of the coenzyme, xylose 300 mM, 25° C., 50 mM MOPS pH 6.3
[3] = test system: Nicotinamide adenine dinucleotide phosphate reduced; test: Kinetic analysis of N. crassa XR: initial rates, NAD(P)H consumption at 340 nm, with cofactors and sugar substrates; assay type: biochemical, Neurospora crassa; settings: other: xylose reduction with the named coenzyme, 25° C., 50 mM MOPS pH 6.3
[4] = test system: Nicotinamide adenine dinucleotide reduced; test: as above; assay type: biochemical, Neurospora crassa; settings: other: xylose reduction with the named coenzyme, 25° C., 50 mM MOPS pH 6.3
[5] = substrate: OC1OC[C@@H](O)[C@@H](O)[C@H]1O; test: as above; assay type: biochemical, Neurospora crassa; settings: other: KM of the sugar substrate, NADPH as cofactor, 25° C., 50 mM MOPS pH 6.3

Molecule	Km [1]	kcat/Km [1]	Km [2]	kcat/Km [2]	kcat [3]	kcat [4]	kcat [5]
N. crassa XR (Neurospora crassa OR74A)	1.8 µM	3.333e+07 M⁻¹ s⁻¹	16 µM	317000 M⁻¹ s⁻¹	60 s⁻¹	5.17 s⁻¹ and 5.2 s⁻¹	–
N. crassa XR (Neurospora crassa OR74A) (protein) MVPAIKLNSGFDMPQVGFGLWKVDGSIASDVVYNAIKAGYRLFDGACDYGNEVECGQGVARAIKEGIVKREELFIVSKLWNTFHDGDRVEPIVRKQLADWGLEYFDLYLIHFPVALEYVDPSVRYPPGWHFDGKSEIRPSKATIQETWTAMESLVEKGLSKSIGVSNFQAQLLYDLLRYAKVRPATLQIEHHPYLVQQNLLNLAKAEGIAVTAYSSFGPASFREFNMEHAQKLQPLLEDPTIKAIGDKYNKDPAQVLLRWATQRGLAIIPKSSREATMKSNLNSLDFDLSEEDIKTISGFDRGIRFNQPTNYFSAENLWIFG	–	–	–	–	–	–	52 ± 1.67 s⁻¹

Values joined by “and” are separate entries in the source; they are usually repeats but may differ in a detail not shown here. Equal values may be shown once.
